Experimental data from PubChem BioAssay (NCI).
Several values for one entry are separate records, joined by “and”; a condition that tells them apart may be missing. Identical values can stand only once. The entries are a selection whose mix differs from that of the whole data set.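 How to read the values: 0–100, growth inhibition (40 = 60% inhibited); 0, no net growth; -100 to 0, cell death (-40 = 40% of starting cells died; -100 = all dead).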 Activity calls are given as the source filed them. The calls were made as follows: active = growth percent below 10; inactive = the rest.

These molecules were tested on RPMI-8226 leukemia (assay: NCI-60 one-dose screen, 48 h (100 = growth as untreated, 0 = no growth, -100 = all killed)). Settings: 10 µM unless noted.

| SMILES | growth |
| --- | --- |
| CC1CCNP(=O)(N(CCCl)CCCl)O1 (stereo unspecified) | inactive: 93% |
| CCN(CCCl)CC1OC(O)C(O)C1O (stereo unspecified) | inactive: 100% |
| CN(CCCl)/N=N/c1nc2nc[nH]c(=O)c2[nH]1 | inactive: 104% |
| Nc1ccc(N(CCCl)CCCl)cc1 | inactive: 84% |
| c1cc(-c2nn[nH]n2)ccc1-c1nn[nH]n1 | inactive: 94.5% |
| CCCC1OP(N)(=O)OCC1CC (stereo unspecified) | inactive: 105% and inactive: 93.3% |
| CCOP(=S)(OCC)OCC | inactive: 113% |
| CCOP(=S)(OCC)SCCCl | inactive: 102% |
| CN(C)P1(Cl)=NP(Cl)(N(C)C)=NP(Cl)(N(C)C)=N1 (stereo unspecified) | inactive: 103% |
| Nc1ccc(CCCCOc2ccccc2)cc1 | inactive: 35.5% |
| O=[N+]([O-])c1cccc(Oc2ccc([N+](=O)[O-])cc2[N+](=O)[O-])c1 | inactive: 18.5% |
| CCN(CC)[P+](c1ccc(OC)cc1OC)(N(CC)CC)N(CC)CC | inactive: 11.5% |
| O=C(Nc1ccc([N+](=O)[O-])cc1)N(CCBr)CCBr | inactive: 95.2% |
| O=P1(N(CCCl)CCCl)Nc2ccccc2N1 | inactive: 110% |
| ClCCNCc1ccccc1 | inactive: 106% |
| O=C(O)/C=C\c1cccc(N(CCCl)CCCl)c1 | inactive: 93.2% |
| O=C(O[C@H]1CN2CCC1CC2)C1NCc2ccccc2[C@@H]1c1ccccc1 (stereo partly specified) | inactive: 91.5% |
| CC(=O)Nc1ccc([As](=O)(O)O)c(O)c1 | inactive: 95.7% |
| ClCCN1CCNCC1 | inactive: 104% |

| SMILES | growth |
| --- | --- |
| Cc1cc([N+](=O)[O-])cc([N+](=O)[O-])c1O | inactive: 103% |
| O=C(OC1CN2CCC1CC2)c1ccccc1 (stereo unspecified) | inactive: 101% |
| O=C(c1ccc([N+](=O)[O-])cc1)N(CCCl)CCCl | inactive: 104% |
| CCCCCCCCCCNP(=S)(Cl)Cl | inactive: 98.5% |
| COc1cc([N+](=O)[O-])c(Nc2ccc(Cl)cc2[N+](=O)[O-])c([N+](=O)[O-])c1 | inactive: 67.6% |
| O=[As]c1ccc(S(=O)(=O)Nc2ccccc2)cc1 (stereo unspecified) | active: -0.236% |
| Cc1ccc(S(=O)(=O)CN(CCCl)CCCl)cc1 | inactive: 103% |
| CCCN(CCCl)C1c2ccccc2-c2ccccc21 | inactive: 98.7% |
| CC(Cl)CN(CC(C)Cl)C(=O)c1ccccc1 (stereo unspecified) | inactive: 104% |
| CC(Cl)CN(CC(C)Cl)C(=O)OCC(N)C(=O)O (stereo unspecified) | inactive: 99% and inactive: 115% |
| C[As](=O)(O)c1cccc(C(=O)O)c1 | inactive: 96.9% |
| Cc1ccc(S(=O)(=O)N(CCCN)CCCc2c(C)nc(N)[nH]c2=O)cc1 | inactive: 99.9% |
| Cn1c(COc2ccc([N+](=O)[O-])cc2[N+](=O)[O-])cnc1[N+](=O)[O-] | inactive: 105% |
| O=[N+]([O-])c1ccc(CCCCCCc2ccc([N+](=O)[O-])cc2[N+](=O)[O-])c([N+](=O)[O-])c1 | inactive: 82.3% |
| CCSC(O)C(Cl)(Cl)Cl (stereo unspecified) | inactive: 100% |
| O=[N+]([O-])c1cc(Cl)cc([N+](=O)[O-])c1O | inactive: 96.2% |
| OP1OCCO1 | inactive: 95.7% |
| N#CC(C#N)=C(C#N)N(CCCl)CCCl | inactive: 102% |
| CC[C@H](C)[C@@H]1NC(=O)/C(=C(\C)O)C1=O | inactive: 172% |

The molecules below were run on OVCAR-8 ovarian in the same assay as above. Settings: 10 µM unless noted.

| SMILES | growth |
| --- | --- |
| CC1CCNP(=O)(N(CCCl)CCCl)O1 (stereo unspecified) | inactive: 102% |
| CCN(CCCl)CC1OC(O)C(O)C1O (stereo unspecified) | inactive: 102% |
| CN(CCCl)/N=N/c1nc2nc[nH]c(=O)c2[nH]1 | inactive: 101% |
| Nc1ccc(N(CCCl)CCCl)cc1 | inactive: 83.8% |
| c1cc(-c2nn[nH]n2)ccc1-c1nn[nH]n1 | inactive: 99.9% |
| CCCC1OP(N)(=O)OCC1CC (stereo unspecified) | inactive: 110% and inactive: 106% |
| CCOP(=S)(OCC)OCC | inactive: 93.6% |
| CCOP(=S)(OCC)SCCCl | inactive: 100% |
| CN(C)P1(Cl)=NP(Cl)(N(C)C)=NP(Cl)(N(C)C)=N1 (stereo unspecified) | inactive: 89.8% |
| Nc1ccc(CCCCOc2ccccc2)cc1 | inactive: 70.6% |
| O=[N+]([O-])c1cccc(Oc2ccc([N+](=O)[O-])cc2[N+](=O)[O-])c1 | active: 7.87% |
| CCN(CC)[P+](c1ccc(OC)cc1OC)(N(CC)CC)N(CC)CC | active: -0.745% |
| O=C(Nc1ccc([N+](=O)[O-])cc1)N(CCBr)CCBr | inactive: 103% |
| O=P1(N(CCCl)CCCl)Nc2ccccc2N1 | inactive: 119% |
| ClCCNCc1ccccc1 | inactive: 109% |
| O=C(O)/C=C\c1cccc(N(CCCl)CCCl)c1 | inactive: 92.1% |
| O=C(O[C@H]1CN2CCC1CC2)C1NCc2ccccc2[C@@H]1c1ccccc1 (stereo partly specified) | inactive: 104% |
| CC(=O)Nc1ccc([As](=O)(O)O)c(O)c1 | inactive: 94.2% |
| ClCCN1CCNCC1 | inactive: 101% |

| SMILES | growth |
| --- | --- |
| Cc1cc([N+](=O)[O-])cc([N+](=O)[O-])c1O | inactive: 106% |
| O=C(OC1CN2CCC1CC2)c1ccccc1 (stereo unspecified) | inactive: 97.5% |
| O=C(c1ccc([N+](=O)[O-])cc1)N(CCCl)CCCl | inactive: 80.5% |
| CCCCCCCCCCNP(=S)(Cl)Cl | inactive: 101% |
| COc1cc([N+](=O)[O-])c(Nc2ccc(Cl)cc2[N+](=O)[O-])c([N+](=O)[O-])c1 | inactive: 62.6% |
| O=[As]c1ccc(S(=O)(=O)Nc2ccccc2)cc1 (stereo unspecified) | inactive: 75.4% |
| Cc1ccc(S(=O)(=O)CN(CCCl)CCCl)cc1 | inactive: 110% |
| CCCN(CCCl)C1c2ccccc2-c2ccccc21 | inactive: 99.7% |
| CC(Cl)CN(CC(C)Cl)C(=O)c1ccccc1 (stereo unspecified) | inactive: 108% |
| CC(Cl)CN(CC(C)Cl)C(=O)OCC(N)C(=O)O (stereo unspecified) | inactive: 100% and inactive: 105% |
| C[As](=O)(O)c1cccc(C(=O)O)c1 | inactive: 100% |
| Cc1ccc(S(=O)(=O)N(CCCN)CCCc2c(C)nc(N)[nH]c2=O)cc1 | inactive: 100% |
| Cn1c(COc2ccc([N+](=O)[O-])cc2[N+](=O)[O-])cnc1[N+](=O)[O-] | inactive: 106% |
| O=[N+]([O-])c1ccc(CCCCCCc2ccc([N+](=O)[O-])cc2[N+](=O)[O-])c([N+](=O)[O-])c1 | inactive: 96.2% |
| CCSC(O)C(Cl)(Cl)Cl (stereo unspecified) | inactive: 105% |
| O=[N+]([O-])c1cc(Cl)cc([N+](=O)[O-])c1O | inactive: 95.4% |
| OP1OCCO1 | inactive: 96.6% |
| N#CC(C#N)=C(C#N)N(CCCl)CCCl | inactive: 96.3% |
| CC[C@H](C)[C@@H]1NC(=O)/C(=C(\C)O)C1=O | inactive: 96.9% |
